Apparent affinities of Ab-14 variants for a coronavirus HR2 peptide

Values reported by Engelhart et al. 2022, doi:10.1038/s41597-022-01779-4 (FLAb copy).

Target: peptide PDVDLGDISGINAS, taken from heptad repeat 2 (HR2) of SARS-CoV-2 spike.

The variants keep the light chain, the linker and the frameworks of Ab-14 (scFv order VH, the linker GGGGSGGGGSGGGGS, VL).
VH: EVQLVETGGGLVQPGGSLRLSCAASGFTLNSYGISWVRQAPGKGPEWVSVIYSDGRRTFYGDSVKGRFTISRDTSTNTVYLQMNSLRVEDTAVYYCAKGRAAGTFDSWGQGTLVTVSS
VL: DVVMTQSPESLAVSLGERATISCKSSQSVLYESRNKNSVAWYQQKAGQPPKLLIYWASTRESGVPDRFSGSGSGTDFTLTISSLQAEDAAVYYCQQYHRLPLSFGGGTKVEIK

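AAYL49 was designed without a model: most single CDR substitutions and a random sample of double and triple ones. AlphaSeq pools MATa yeast showing the antibodies with MATalpha yeast showing the peptide. Mating (16 h, 30 °C) was followed by selection of diploids and sequencing of their barcodes. A regression on co-assayed BCL2-family reference pairs converts the normalised counts of each replicate to an apparent Kd. Mating was done three times.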

Changes read parent residue, position, new residue, counted from the first residue of the VH shown.
Every variant below is changed at S107 of the VH (sequential numbering).
The Kd shown is the geometric mean over detected replicates; a lower Kd is a better binder.
"no signal" marks a missing value. The strain was present, yet no cells mated with the target were sequenced in any replicate, which points to weak or no binding.
For reference, the parent read 4.4 nM as the reference entry and 13 µM (one replicate of three) as a member of this library.

changes	Kd	seen in	signal with controls
R56W/S63R/S107V	19 nM	3/3	1/9
N30Q/S53M/S107R	no signal	0/3	0/9
D62I/S107R	no signal	0/3	1/9
V64L/D106H/S107E	no signal	0/3	1/9
G99I/D106R/S107C	21 nM	3/3	2/9
N30K/I51L/S107V	5.8 µM	2/3	0/9
R57F/S107T	7.3 µM	1/3	0/9
S31A/G33F/S107F	67 µM	2/3	4/9
D54Y/F105Y/S107N	no signal	0/3	0/9
F105T/D106M/S107G	26 nM	3/3	1/9
S35K/S53N/S107V	no signal	0/3	0/9
I51A/R56N/S107T	91 nM	3/3	4/9
G61H/V64Q/S107D	no signal	0/3	1/9
A101K/G103T/S107D	no signal	0/3	0/9
S35D/Y52N/S107G	no signal	0/3	0/9
A101H/S107L	12 nM	3/3	1/9
Y32K/Y52G/S107Y	4.2 µM	2/3	6/9
V64C/G99D/S107T	no signal	0/3	2/9
Y32A/V50A/S107D	no signal	0/3	1/9
Y32D/A102N/S107H	no signal	0/3	0/9
Y52D/V64M/S107V	no signal	0/3	0/9
F27R/D54Q/S107G	no signal	0/3	0/9
R57G/T104N/S107I	no signal	0/3	1/9
L29I/A102T/S107I	no signal	0/3	2/9
S35C/I51L/S107P	48 µM	3/3	9/9
D106T/S107H	6.2 nM	3/3	2/9
T58M/K65G/S107G	17 µM	1/3	2/9
V50K/S107C	no signal	0/3	0/9
T28W/S107H	no signal	0/3	3/9
S35A/G99C/S107H	no signal	0/3	2/9
T28I/V50P/S107T	520 µM	1/3	3/9
I51L/V64N/S107R	no signal	0/3	1/9
K65V/S107K	110 nM	3/3	0/9
F27R/S31D/S107D	260 nM	3/3	0/9
Y52G/D62I/S107W	no signal	0/3	0/9
S31G/G55A/S107T	1.4 µM	2/3	1/9
F59I/D106L/S107P	1.8 µM	3/3	1/9
D54H/R56D/S107I	420 nM	1/3	0/9
G33N/I51F/S107V	1.8 µM	2/3	0/9
V64E/A101L/S107K	110 nM	3/3	0/9
R57V/A101R/S107R	35 µM	3/3	8/9
L29W/Y52M/S107F	no signal	0/3	0/9
T28A/F59H/S107A	31 nM	3/3	2/9
S63M/S107T	4.6 nM	3/3	1/9
F27S/Y60F/S107H	12 µM	2/3	5/9
I51M/R100Q/S107R	200 nM	3/3	2/9
N30P/V64G/S107R	no signal	0/3	0/9
Y60S/F105Q/S107H	no signal	0/3	3/9
Y60E/G99Y/S107H	2.2 µM	1/3	1/9
G26K/S63R/S107Y	3.9 µM	3/3	7/9
V64N/R100M/S107G	no signal	0/3	0/9
G55T/Y60A/S107F	140 µM	1/3	5/9
S31P/K65H/S107Y	no signal	0/3	0/9
G103M/F105V/S107G	1.9 µM	3/3	4/9
T28N/D106K/S107R	no signal	0/3	0/9
F59N/F105T/S107N	no signal	0/3	0/9
G61V/V64C/S107D	no signal	0/3	2/9
F59N/G99P/S107E	19 nM	3/3	2/9
F27I/G55M/S107M	33 µM	3/3	6/9
G33I/D62Y/S107T	no signal	0/3	0/9

The opening 6 entries, copied out:

changes	Kd	seen in	signal with controls
R56W/S63R/S107V	19 nM	3/3	1/9
N30Q/S53M/S107R	no signal	0/3	0/9
D62I/S107R	no signal	0/3	1/9
V64L/D106H/S107E	no signal	0/3	1/9
G99I/D106R/S107C	21 nM	3/3	2/9
N30K/I51L/S107V	5.8 µM	2/3	0/9

Empty control strains, which show no peptide, gave a signal in 15% of pairings with library AAYL49; the median was 11 µM and 95% of these signals were weaker than 680 nM. No background was subtracted. For each scFv, signals with the empty controls are counted beside the result.